Key:
[1] = molecular target: T1, Thermosynechococcus elongatus PKUAC-SCTE542 protoporphyrinogen IX oxidase CyPPO19, wild type, SEQ ID NO: 1 (MBP fusion) (Thermosynechococcus sichuanensis, UniProt A0A7D6JSC1); assay: PPO enzyme inhibition assay (IC50 for herbicides), CyPPO19 wild type fused to MBP; format: biochemical
T1 sequence (A0A7D6JSC1 1-467): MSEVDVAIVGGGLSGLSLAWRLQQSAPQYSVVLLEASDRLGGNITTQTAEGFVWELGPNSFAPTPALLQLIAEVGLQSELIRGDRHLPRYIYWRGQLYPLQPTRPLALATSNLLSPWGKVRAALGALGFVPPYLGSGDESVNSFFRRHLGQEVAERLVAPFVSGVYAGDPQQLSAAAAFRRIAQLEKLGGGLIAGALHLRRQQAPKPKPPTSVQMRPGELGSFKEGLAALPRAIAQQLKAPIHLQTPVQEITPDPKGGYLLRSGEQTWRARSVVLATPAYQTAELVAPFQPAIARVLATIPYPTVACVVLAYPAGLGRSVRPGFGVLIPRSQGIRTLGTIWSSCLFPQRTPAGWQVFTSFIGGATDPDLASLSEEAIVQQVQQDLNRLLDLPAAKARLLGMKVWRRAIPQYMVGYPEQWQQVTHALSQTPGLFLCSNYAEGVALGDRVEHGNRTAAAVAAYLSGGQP

Amino acid sequences for entries named in this document (tags omitted).
UniProt A0A7D6JSC1, entry or part of it R89A: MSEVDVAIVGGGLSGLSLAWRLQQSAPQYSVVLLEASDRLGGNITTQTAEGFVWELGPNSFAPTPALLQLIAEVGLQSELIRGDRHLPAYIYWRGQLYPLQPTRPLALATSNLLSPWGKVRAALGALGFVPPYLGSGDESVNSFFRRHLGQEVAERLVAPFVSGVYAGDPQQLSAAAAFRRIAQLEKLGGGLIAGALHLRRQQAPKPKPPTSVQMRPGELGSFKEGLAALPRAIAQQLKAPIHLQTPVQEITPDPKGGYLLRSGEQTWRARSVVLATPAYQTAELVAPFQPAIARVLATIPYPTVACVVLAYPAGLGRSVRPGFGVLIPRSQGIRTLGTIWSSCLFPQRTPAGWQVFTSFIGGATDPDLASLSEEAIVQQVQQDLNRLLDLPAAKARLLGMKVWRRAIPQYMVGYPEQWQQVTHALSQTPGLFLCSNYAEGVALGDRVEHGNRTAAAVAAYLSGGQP
UniProt A0A7D6JSC1, entry or part of it V165C: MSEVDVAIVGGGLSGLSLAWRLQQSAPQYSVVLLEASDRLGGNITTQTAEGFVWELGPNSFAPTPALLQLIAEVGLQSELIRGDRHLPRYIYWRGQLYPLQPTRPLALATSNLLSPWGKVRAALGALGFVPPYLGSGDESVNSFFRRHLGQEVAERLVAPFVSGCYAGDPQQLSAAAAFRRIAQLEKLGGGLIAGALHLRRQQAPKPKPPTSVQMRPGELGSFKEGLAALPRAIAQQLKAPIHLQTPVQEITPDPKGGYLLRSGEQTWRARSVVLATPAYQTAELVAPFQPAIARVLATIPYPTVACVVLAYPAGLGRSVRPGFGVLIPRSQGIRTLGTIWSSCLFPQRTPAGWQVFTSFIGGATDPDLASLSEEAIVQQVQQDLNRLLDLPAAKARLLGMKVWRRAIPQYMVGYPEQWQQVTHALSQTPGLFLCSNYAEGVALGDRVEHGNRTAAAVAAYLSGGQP
UniProt A0A7D6JSC1, entry or part of it V165S: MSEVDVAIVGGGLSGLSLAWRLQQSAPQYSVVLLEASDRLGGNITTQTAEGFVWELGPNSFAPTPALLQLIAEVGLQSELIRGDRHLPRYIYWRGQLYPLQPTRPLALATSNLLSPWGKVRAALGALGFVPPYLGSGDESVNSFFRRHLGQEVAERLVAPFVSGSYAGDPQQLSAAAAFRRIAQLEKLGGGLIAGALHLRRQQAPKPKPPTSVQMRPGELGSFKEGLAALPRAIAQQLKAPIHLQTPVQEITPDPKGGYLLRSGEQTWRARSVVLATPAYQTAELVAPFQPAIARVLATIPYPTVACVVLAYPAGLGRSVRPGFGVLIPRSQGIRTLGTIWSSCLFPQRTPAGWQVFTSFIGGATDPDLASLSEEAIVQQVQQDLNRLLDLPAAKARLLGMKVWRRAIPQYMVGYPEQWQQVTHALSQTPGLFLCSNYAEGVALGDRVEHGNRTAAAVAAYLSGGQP
UniProt A0A7D6JSC1, entry or part of it A167C: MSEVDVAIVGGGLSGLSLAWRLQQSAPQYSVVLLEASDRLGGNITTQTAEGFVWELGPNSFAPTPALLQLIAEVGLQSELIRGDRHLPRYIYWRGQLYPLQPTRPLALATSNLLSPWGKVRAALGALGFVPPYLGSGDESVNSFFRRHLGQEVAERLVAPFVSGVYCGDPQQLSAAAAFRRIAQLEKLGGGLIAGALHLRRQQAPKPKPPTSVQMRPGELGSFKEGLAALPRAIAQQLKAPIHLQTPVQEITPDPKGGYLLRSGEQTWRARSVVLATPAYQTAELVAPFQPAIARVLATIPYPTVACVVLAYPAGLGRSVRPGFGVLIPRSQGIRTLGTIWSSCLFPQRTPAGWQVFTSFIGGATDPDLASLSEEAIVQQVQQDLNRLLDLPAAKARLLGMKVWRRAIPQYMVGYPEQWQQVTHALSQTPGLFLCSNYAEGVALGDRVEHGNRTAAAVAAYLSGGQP
UniProt A0A7D6JSC1, entry or part of it A167I: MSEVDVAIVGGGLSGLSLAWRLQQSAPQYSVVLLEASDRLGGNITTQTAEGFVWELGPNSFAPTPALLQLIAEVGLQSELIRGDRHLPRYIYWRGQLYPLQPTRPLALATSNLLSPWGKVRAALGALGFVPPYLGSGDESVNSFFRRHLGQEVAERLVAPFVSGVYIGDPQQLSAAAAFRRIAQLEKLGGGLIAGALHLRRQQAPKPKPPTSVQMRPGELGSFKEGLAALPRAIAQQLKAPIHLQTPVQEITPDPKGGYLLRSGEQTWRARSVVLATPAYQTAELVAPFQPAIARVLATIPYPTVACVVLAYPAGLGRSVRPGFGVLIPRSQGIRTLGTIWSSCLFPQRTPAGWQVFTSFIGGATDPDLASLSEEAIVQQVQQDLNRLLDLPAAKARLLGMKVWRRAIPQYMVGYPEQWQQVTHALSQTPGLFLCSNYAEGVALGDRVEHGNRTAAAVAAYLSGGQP
UniProt A0A7D6JSC1, entry or part of it A167L: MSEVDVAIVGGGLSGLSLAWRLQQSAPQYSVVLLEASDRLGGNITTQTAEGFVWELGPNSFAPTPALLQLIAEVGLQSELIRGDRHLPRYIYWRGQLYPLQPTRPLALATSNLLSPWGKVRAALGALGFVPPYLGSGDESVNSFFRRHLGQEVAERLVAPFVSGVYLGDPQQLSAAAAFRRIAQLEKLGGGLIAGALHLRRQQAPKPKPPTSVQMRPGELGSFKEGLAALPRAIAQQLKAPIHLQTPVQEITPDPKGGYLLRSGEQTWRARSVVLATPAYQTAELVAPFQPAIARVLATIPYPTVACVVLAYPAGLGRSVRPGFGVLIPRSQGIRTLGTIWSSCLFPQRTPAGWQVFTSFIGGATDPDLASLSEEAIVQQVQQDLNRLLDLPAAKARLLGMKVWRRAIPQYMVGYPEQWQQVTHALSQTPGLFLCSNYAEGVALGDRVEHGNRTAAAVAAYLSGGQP
UniProt A0A7D6JSC1, entry or part of it V305M: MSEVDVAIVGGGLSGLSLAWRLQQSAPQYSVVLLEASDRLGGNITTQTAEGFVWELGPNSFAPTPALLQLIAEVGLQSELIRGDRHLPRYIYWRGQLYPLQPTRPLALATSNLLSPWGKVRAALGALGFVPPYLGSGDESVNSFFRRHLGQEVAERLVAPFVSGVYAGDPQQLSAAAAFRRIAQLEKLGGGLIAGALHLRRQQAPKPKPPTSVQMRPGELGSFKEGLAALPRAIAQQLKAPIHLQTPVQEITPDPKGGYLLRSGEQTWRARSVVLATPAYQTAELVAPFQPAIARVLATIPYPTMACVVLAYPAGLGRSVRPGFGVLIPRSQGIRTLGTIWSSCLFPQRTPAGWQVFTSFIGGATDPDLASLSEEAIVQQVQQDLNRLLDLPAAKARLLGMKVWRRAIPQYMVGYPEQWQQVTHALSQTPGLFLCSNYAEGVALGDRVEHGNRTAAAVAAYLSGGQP
UniProt A0A7D6JSC1, entry or part of it V305L: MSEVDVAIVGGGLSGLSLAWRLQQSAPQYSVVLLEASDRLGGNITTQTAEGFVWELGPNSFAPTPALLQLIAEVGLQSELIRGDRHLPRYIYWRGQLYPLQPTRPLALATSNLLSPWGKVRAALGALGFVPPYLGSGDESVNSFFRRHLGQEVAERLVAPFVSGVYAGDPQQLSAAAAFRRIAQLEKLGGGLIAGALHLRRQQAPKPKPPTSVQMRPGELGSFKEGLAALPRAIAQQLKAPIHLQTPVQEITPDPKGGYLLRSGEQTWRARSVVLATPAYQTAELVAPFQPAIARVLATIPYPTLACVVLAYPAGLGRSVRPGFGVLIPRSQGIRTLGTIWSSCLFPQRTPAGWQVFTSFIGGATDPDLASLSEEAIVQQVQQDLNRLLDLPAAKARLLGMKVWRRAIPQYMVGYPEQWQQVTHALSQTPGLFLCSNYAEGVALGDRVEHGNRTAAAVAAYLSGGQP

[2] = molecular target: Thermosynechococcus elongatus PKUAC-SCTE542 protoporphyrinogen IX oxidase CyPPO19 (SEQ ID NO: 1) variant R89A (MBP fusion) (Thermosynechococcus sichuanensis, UniProt A0A7D6JSC1, R89A); assay: biochemical
[3] = molecular target: Thermosynechococcus elongatus PKUAC-SCTE542 protoporphyrinogen IX oxidase CyPPO19 (SEQ ID NO: 1) variant V165C (MBP fusion) (Thermosynechococcus sichuanensis, UniProt A0A7D6JSC1, V165C); assay: PPO enzyme inhibition assay (IC50 for herbicides), CyPPO19 V165C fused to MBP; format: biochemical
[4] = molecular target: Thermosynechococcus elongatus PKUAC-SCTE542 protoporphyrinogen IX oxidase CyPPO19 (SEQ ID NO: 1) variant V165S (MBP fusion) (Thermosynechococcus sichuanensis, UniProt A0A7D6JSC1, V165S); assay: biochemical; conditions: 50 μM protoporphyrinogen IX, pH 7.5, room temperature, 30 min, 10,000 means equivalent to or higher
[5] = molecular target: Thermosynechococcus elongatus PKUAC-SCTE542 protoporphyrinogen IX oxidase CyPPO19 (SEQ ID NO: 1) variant A167C (MBP fusion) (Thermosynechococcus sichuanensis, UniProt A0A7D6JSC1, A167C); assay: biochemical
[6] = molecular target: Thermosynechococcus elongatus PKUAC-SCTE542 protoporphyrinogen IX oxidase CyPPO19 (SEQ ID NO: 1) variant A167I (MBP fusion) (Thermosynechococcus sichuanensis, UniProt A0A7D6JSC1, A167I); assay: biochemical; conditions: 50 μM protoporphyrinogen IX, pH 7.5, room temperature, 30 min, 10,000 means equivalent to or higher
[7] = molecular target: Thermosynechococcus elongatus PKUAC-SCTE542 protoporphyrinogen IX oxidase CyPPO19 (SEQ ID NO: 1) variant A167L (MBP fusion) (Thermosynechococcus sichuanensis, UniProt A0A7D6JSC1, A167L); assay: biochemical
[8] = molecular target: Thermosynechococcus elongatus PKUAC-SCTE542 protoporphyrinogen IX oxidase CyPPO19 (SEQ ID NO: 1) variant V305M (MBP fusion) (Thermosynechococcus sichuanensis, UniProt A0A7D6JSC1, V305M); assay: PPO enzyme inhibition assay (IC50 for herbicides), CyPPO19 V305M fused to MBP; format: biochemical
[9] = molecular target: Thermosynechococcus elongatus PKUAC-SCTE542 protoporphyrinogen IX oxidase CyPPO19 (SEQ ID NO: 1) variant V305L (MBP fusion) (Thermosynechococcus sichuanensis, UniProt A0A7D6JSC1, V305L); assay: PPO enzyme inhibition assay (IC50 for herbicides), CyPPO19 V305L fused to MBP; format: biochemical

Cc1nn(-c2cc(NS(C)(=O)=O)c(Cl)cc2Cl)c(=O)n1C(F)F [Sulfentrazone]
IC50 [1]: 516 nM | IC50 [2]: 1380 nM | IC50 [3]: 2540 nM | IC50 [4]: 1210 nM | IC50 [5]: 2240 nM | IC50 [6]: 3.52 µM | IC50 [7]: ≥ 10 µM | IC50 [8]: 693 nM | IC50 [9]: 806 nM

Reference: patent US12698507B2, “Methods and compositions for conferring and/or enhancing herbicide tolerance using protoporphyrinogen IX oxidase of various cyanobacteria or variant thereof” (FarmHannong Co., Ltd., priority 2019, dated 2026)
